Earlier results as cited in patent publication US9687529B2, “Method of controlling coagulation” (Duke University, priority 2011, dated 2017).

Target: thrombin (Homo sapiens, UniProt P00734)
Settings: cited from earlier work

SMILES: CC1CNc2c(cccc2S(=O)(=O)N[C@@H](CCCNC(=N)N)C(=O)N2CC[C@@H](C)C[C@@H]2C(=O)O)C1 (stereo partly shown) [argatroban]
- Kd: ~0.04 µM
